Results taken from ChEMBL document CHEMBL5244234, “Janus kinases (JAKs): The efficient therapeutic targets for autoimmune diseases and myeloproliferative disorders” (Eur J Med Chem, 2020).

The chains behind the UniProt entries cited, without tags or fusion partners. Where a name states a change or a piece, a line headed by the entry shows the natural chain unless it says otherwise.
UniProt P29597: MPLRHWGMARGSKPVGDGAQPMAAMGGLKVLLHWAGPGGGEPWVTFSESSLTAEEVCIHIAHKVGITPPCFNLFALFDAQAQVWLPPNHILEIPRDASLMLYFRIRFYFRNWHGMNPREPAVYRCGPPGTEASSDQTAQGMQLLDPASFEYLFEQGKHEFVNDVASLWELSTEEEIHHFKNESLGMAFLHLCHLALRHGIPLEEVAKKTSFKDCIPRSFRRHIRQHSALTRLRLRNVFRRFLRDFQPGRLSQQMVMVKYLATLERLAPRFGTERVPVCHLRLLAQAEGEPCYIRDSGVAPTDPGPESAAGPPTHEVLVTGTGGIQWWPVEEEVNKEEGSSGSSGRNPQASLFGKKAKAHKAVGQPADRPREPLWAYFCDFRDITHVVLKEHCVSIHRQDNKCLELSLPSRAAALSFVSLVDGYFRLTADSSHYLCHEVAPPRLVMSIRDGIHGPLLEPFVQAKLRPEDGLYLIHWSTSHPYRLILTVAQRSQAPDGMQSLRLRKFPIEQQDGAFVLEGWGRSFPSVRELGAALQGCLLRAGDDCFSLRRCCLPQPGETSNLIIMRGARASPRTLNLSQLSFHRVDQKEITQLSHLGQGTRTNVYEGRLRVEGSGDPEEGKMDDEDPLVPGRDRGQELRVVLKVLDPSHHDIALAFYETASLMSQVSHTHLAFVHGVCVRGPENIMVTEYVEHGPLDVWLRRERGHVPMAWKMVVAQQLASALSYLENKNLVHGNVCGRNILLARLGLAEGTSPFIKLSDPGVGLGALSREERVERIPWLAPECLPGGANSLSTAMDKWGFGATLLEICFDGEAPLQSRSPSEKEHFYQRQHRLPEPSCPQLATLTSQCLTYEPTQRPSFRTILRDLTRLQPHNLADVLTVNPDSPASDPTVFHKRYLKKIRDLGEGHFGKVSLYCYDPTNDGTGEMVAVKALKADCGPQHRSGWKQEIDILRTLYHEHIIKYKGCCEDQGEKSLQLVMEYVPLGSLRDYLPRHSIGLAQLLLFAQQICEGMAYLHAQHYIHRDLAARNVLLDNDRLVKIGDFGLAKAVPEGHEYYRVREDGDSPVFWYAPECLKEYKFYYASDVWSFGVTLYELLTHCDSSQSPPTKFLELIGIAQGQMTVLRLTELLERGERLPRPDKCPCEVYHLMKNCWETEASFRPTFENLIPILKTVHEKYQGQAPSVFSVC

How the values were obtained:
[1] = Inhibition of IL-2 induced human T cell proliferation preincubated with compound for 30 mins followed by IL-2 induction and measured after 3 days in the presence of [3H]thymidine by scintillation counter analysis; assay type: functional, cell-based
[2] = biological target: Non-receptor tyrosine-protein kinase TYK2 (Homo sapiens, UniProt P29597); test: Inhibition of TYK2 (unknown origin) assessed as inhibition constant

| Structure (SMILES) | IC50 [1] [nM] | Ki [2] [nM] |
| --- | --- | --- |
| C[C@H]1CN(C(=O)CC#N)[C@]12CCN(c1ncnc3[nH]ccc13)C2 [DELGOCITINIB] | 8.9 | – |
| CC[C@@](C)(Nc1ccnc(-c2c[nH]c3ncccc23)n1)C(=O)NCC(F)(F)F [DECERNOTINIB] | – | 11 |
